Details: blood; after oral tacrolimus

12-hydroxy tacrolimus [12-HT]
mean AUCmetabolite/AUCparent ratio, fold higher in CYP3A5 expressors than nonexpressors: 2.7 fold

Source: publication PMC4038024 (Clinical pharmacology and therapeutics, 2012)
